Several values for one entry are separate records, joined by “and”; a condition that tells them apart may be missing. Equal values may be shown once. The list shows a part of the results, in another mix than the full data. Some tests of the compounds listed are not included; inactive here does not mean inactive elsewhere.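 Note: values are percent growth. 100 is the growth of untreated cells, values between 100 and 0 indicate rising inhibition; between -100 and 0 indicates cell death.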 Activity calls are given as the source filed them. The calls were made as follows: active = growth percent below 10; inactive = the rest.

The subject of one test is SF-268 CNS. Kind of test: NCI-60 one-dose screen, 48 h (100 = growth as untreated, 0 = no growth, -100 = all killed). The conditions noted are these: 10 µM.
Take `N#CC(C#N)=Cc1cccc(Br)c1`: the growth is inactive: 102%.

As to `CC(=O)CI`, the growth is inactive: 104%.

For the molecule `ClCCN(CCCl)Cc1ccc(Cl)c(Cl)c1`, the growth was inactive: 99.3%.

In the case of `CCCN(CCCl)CCCl`, the growth is inactive: 110%.

Consider `ClCCN(CCCl)C1CCCCC1`, for which the growth was inactive: 96.2%.

Consider `BrCCN(CCBr)Cc1ccccc1`, for which the growth was inactive: 97.1%.

As to `N#CC(C#N)=Cc1ccc(Br)cc1`, the growth was inactive: 98.6% and inactive: 109%.

Turning to `Cc1cc2nc(CN(CCCl)CCCl)[nH]c2cc1C`, the growth was inactive: 74.7%.

Consider `COc1ccc(N=C=S)cc1CN(CCCl)CCCl`, for which the growth is inactive: 66.6%.

For `CCNCCCl`, the growth was inactive: 109%.

Consider `N#CC(C#N)=Cc1ccccc1Cl`, for which the growth was inactive: 108%.

Turning to `CC[N+](C)(C)Cc1cccc(Cc2ccccc2)c1OC(=O)N(C)C`, the growth is inactive: 99.6%.

As for `COCc1c(CN(CCCl)CCCl)cnc(C)c1O`, the growth is inactive: 102%.

On to `ClCCN(CCCl)Cc1ccsc1Br`, for which the growth was inactive: 79.4%.

In the case of `ClCCN(CCCl)C1c2ccccc2-c2ccccc21`, the growth is inactive: 92.9%.

As for `CN(CCBr)CCBr`, the growth is inactive: 102%.

Take `CCOc1ccc([N+](=O)[O-])cc1CN(CCCl)CCCl`: the growth is inactive: 98.9%.

Regarding `ClCCCCCC(CCl)NCCCl` (stereo not given), the growth is inactive: 71.8%.

As to `COc1ccc([N+](=O)[O-])cc1CN(CCCl)CCCl`, the growth is inactive: 101%.

`CC(C)(C)N(CCCl)CCCl`: the growth is inactive: 113%.

In the case of `O=C(OCCN1CCCC1)C(O)(c1ccccc1)c1ccccc1`, the growth was inactive: 99.1%.

In the case of `ClCCN(CCCl)Cc1cc(Cl)cc(Cl)c1`, the growth was inactive: 81.7%.

Take `CN(C)CCOC(=O)C(O)(c1ccccc1)c1ccccc1`: the growth is inactive: 110%.

In the case of `Fc1cccc(CN(CCCl)CCCl)c1`, the growth is inactive: 95.4%.

In another test the test system is SF-295 CNS. Described as above. The note with it: 10 µM.
Regarding `N#CC(C#N)=Cc1cccc(Br)c1`, the growth was inactive: 95.7%.

As for `CC(=O)CI`, the growth is inactive: 99.7%.

`ClCCN(CCCl)Cc1ccc(Cl)c(Cl)c1`: the growth was inactive: 96.8%.

For `ClCCN(CCCl)C1CCCCC1`, the growth is inactive: 101%.

Consider `BrCCN(CCBr)Cc1ccccc1`, for which the growth is inactive: 99.4%.

With `N#CC(C#N)=Cc1ccc(Br)cc1`, the growth is inactive: 105% and inactive: 109%.

Consider `Cc1cc2nc(CN(CCCl)CCCl)[nH]c2cc1C`, for which the growth was inactive: 89.2%.

On to `COc1ccc(N=C=S)cc1CN(CCCl)CCCl`, for which the growth was inactive: 85.1%.

Turning to `N#CC(C#N)=Cc1ccccc1Cl`, the growth is inactive: 98.7%.

For the molecule `CC[N+](C)(C)Cc1cccc(Cc2ccccc2)c1OC(=O)N(C)C`, the growth was inactive: 97.8%.

Turning to `COCc1c(CN(CCCl)CCCl)cnc(C)c1O`, the growth was inactive: 107%.

In the case of `ClCCN(CCCl)Cc1ccsc1Br`, the growth was inactive: 92.6%.

With `ClCCN(CCCl)C1c2ccccc2-c2ccccc21`, the growth was inactive: 91.9%.

For the molecule `CN(CCBr)CCBr`, the growth is inactive: 99.8%.

As to `CCOc1ccc([N+](=O)[O-])cc1CN(CCCl)CCCl`, the growth is inactive: 101%.

As for `ClCCCCCC(CCl)NCCCl` (stereo not given), the growth is inactive: 86.3%.

Consider `COc1ccc([N+](=O)[O-])cc1CN(CCCl)CCCl`, for which the growth was inactive: 109%.

Consider `O=C(OCCN1CCCC1)C(O)(c1ccccc1)c1ccccc1`, for which the growth is inactive: 102%.

With `ClCCN(CCCl)Cc1cc(Cl)cc(Cl)c1`, the growth was inactive: 37.1%.

As for `CN(C)CCOC(=O)C(O)(c1ccccc1)c1ccccc1`, the growth is inactive: 109%.

Take `Fc1cccc(CN(CCCl)CCCl)c1`: the growth is inactive: 95.5%.

These data come from PubChem BioAssay (NCI).
